The entries are a selection whose mix differs from that of the whole data set. Results filed as inconclusive are left out. For some assays here: Potency and affinity values are given separately. Calls of active or inactive are those of the source. Unless noted, calls follow the shape of the dose curve; as a rule, active = well fitted curve in the direction sought with a large enough effect; inconclusive = small, poorly fitted or top-dose-only effect, or another doubt; inactive = no such curve, though single readings can be large; an effect the other way counts as inactive or inconclusive.
Tests used:
[1] = Cell Viability - SH-SY5Y (AID 544); settings: SH-SY5Y neuroblastoma cell viability; at 92.2 µM (top of the series);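 also: cells exposed to compound for 40 hours; nearly all actives have a fitted effect of over 55% in size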
In short: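 Cells were plated at 1500 per well and allowed 5 hr at 37 °C. Compounds were added across a concentration range and incubated 40 hr at 37 °C. CellTiter-Glo was added for 20 min at room temperature before luminescence reading.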

By UniProt entry, the sequences of proteins in these tests, tags left out. Residues count along the entry.
UniProt Q07869, whole entry: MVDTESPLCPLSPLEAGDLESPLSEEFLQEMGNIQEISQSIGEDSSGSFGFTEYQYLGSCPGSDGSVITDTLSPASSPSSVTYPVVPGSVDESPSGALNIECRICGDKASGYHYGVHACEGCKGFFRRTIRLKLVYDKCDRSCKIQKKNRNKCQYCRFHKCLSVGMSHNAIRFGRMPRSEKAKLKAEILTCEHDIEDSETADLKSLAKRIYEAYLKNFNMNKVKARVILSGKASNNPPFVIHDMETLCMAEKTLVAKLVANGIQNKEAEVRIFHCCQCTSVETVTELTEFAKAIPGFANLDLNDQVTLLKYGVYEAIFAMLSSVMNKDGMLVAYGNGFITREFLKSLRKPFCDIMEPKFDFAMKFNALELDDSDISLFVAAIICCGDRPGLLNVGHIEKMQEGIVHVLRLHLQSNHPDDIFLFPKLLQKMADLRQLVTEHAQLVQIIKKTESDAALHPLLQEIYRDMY
UniProt P10828, whole entry: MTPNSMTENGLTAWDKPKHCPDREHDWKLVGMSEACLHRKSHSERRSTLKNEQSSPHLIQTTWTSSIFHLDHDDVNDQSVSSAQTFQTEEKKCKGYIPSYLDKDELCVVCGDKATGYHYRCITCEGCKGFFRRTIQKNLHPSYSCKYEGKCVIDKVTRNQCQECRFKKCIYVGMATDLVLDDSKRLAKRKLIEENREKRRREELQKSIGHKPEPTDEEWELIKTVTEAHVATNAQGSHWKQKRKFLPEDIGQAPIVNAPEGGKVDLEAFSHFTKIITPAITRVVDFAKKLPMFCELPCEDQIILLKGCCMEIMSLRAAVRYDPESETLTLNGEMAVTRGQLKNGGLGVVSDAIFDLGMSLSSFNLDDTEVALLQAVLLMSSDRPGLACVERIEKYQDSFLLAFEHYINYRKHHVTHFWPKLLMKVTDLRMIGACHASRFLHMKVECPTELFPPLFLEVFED
UniProt Q03181, whole entry: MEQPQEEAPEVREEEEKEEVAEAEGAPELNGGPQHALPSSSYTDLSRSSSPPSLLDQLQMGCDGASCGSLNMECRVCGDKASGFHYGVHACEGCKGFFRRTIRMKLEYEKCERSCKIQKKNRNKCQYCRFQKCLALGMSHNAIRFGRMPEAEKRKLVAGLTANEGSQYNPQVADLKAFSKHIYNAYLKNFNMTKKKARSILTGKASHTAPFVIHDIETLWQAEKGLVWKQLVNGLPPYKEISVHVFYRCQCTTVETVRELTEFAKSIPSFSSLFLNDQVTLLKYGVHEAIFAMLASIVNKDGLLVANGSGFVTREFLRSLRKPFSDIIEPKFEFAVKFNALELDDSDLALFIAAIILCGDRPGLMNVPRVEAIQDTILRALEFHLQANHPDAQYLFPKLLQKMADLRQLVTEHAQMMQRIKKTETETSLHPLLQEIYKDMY
UniProt P11712, whole entry: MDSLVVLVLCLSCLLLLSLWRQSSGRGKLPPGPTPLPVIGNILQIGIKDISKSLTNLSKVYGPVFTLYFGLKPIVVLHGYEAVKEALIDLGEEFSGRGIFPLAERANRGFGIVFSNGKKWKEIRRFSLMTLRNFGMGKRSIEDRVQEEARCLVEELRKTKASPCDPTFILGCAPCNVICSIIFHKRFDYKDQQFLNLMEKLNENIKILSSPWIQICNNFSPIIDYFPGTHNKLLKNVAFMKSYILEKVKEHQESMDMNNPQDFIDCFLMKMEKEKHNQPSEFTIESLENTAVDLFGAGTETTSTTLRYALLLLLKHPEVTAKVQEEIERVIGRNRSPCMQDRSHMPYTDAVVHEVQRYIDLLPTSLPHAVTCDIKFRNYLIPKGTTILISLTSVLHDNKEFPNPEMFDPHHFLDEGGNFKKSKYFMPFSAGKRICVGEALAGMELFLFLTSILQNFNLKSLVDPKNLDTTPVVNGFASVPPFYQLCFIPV
UniProt Q12809, 1-548 isoform 6: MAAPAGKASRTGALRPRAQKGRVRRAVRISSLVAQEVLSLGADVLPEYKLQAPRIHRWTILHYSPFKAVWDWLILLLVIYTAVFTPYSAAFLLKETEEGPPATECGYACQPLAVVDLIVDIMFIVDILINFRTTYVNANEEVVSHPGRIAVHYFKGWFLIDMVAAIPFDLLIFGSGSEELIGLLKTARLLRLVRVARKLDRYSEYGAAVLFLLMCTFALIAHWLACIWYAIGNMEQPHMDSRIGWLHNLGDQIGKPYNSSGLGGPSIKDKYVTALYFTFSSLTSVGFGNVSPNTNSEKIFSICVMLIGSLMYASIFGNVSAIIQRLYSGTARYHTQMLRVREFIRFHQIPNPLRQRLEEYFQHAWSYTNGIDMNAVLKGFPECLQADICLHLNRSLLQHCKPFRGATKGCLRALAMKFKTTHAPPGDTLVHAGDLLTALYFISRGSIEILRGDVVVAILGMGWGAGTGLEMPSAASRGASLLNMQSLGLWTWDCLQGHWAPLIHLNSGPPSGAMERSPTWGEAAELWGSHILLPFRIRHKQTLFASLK

[2] = Cell Viability - Renal Proximal Tubule (AID 545); settings: renal proximal tubule cells viability, primary cells of rat origin; at 91.7 µM (top of the series);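 also: cells exposed to compound for 40 hours; nearly all actives have a fitted effect of over 40% in size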
In short: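 Viability taken as intracellular ATP (CellTiter-Glo luminescence) after 40 hr, 37 °C compound treatment of primary proximal tubule cells from rat kidney, 1000 cells/well; Hill-equation fits of qHTS concentration-response data gave AC50.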

[3] = molecular target: Peroxisome proliferator-activated receptor alpha (Homo sapiens) (UniProt Q07869); assay: qHTS assay for small molecule agonists of the peroxisome proliferator-activated receptor alpha (PPARalpha) signaling pathway (AID 651778); settings: PathHunter PPARalpha complementation, chemiluminescence, 6 h; stronger effect = higher value; also: % of control where 0% means no effect
In short: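 Chemiluminescence from complemented enzyme reported PPARalpha activation in cells after 6 hr of compound treatment at 37 C. The detection reagent was incubated for 60 min at room temperature, and compounds were scored as agonists.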

[4] = Cellular Toxicity (caspase-3) Hek293 (AID 664); settings: HEK293 caspase-3 activation, DMSO = 0%, 100 µM tamoxifen = 100%; at 92.2 µM (top of the series);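 also: cells exposed to compound for 16 h at 37 °C before readout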
In short: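 qHTS, HEK293 (human embryonic kidney), 16 h cpd exposure in complete medium. Caspase-3/7 activation = luminescence increase; normalized to DMSO/100 uM tamoxifen; Hill-fit AC50.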

[5] = MultiTox-Fluor Cytotoxicity Assay - LYMP1-002 - Live Cells (AID 955); settings: LYMP1-002 lymphoblastoid live-cell protease fluorescence viability; at 46.1 µM (top of the series);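 also: cells exposed to compound for 16 hours; % is scaled to controls: 0 for no effect and ±100 for the full control effect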
In short: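 Cells were seeded at 2500 per well and incubated 5 hr. Compounds were then added for 16 hr at 37 C, followed by MultiTox-Fluor reagent for 60 min at room temperature and fluorescence reading of viable-cell protease signal.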

[6] = molecular target: Retinoic acid receptor RXR-alpha (Homo sapiens) (UniProt P19793); assay: qHTS assay for small molecule agonists of retinoid X receptor alpha signaling (AID 588544; calls by dose curve;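 also: 0% = DMSO basal wells and 100% = reference agonist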); settings: HEK293T RXRa-UAS-bla, beta-lactamase reporter, 18 h; at 76.7 µM (top of the series)
Text: NIH Chemical Genomics Center [NCGC] U.S. Environmental Protection Agency [EPA] National Institutes of Environmental Health Sciences [NIEHS] National Toxicology Program [NTP] NCGC Assay Overview The Retinoid X receptor (RXR), a nuclear hormone receptor is expressed in liver, spleen, placenta, epidermis, central nervous system. These receptors are able to form homo and heterodimers with other nuclear receptors and due to this heterodimerizing ability, RXR functions as master regulators producing diverse physiological effects. Three subtypes of RXR exist; alpha, beta and gamma. […]
NCGC Assay Protocol Summary Using a beta-lactamase reporter-gene under control of Retinoid X receptor--alpha (RXR-alpha) response element, a cell-based assay [GeneBLAzer (RXR-alpha -UAS-bla assay developed by Invitrogen] was used to measure RXR-alpha ligands signaling. GeneBLAzer RXR-alpha -UAS-bla HEK293T cells were used with assay medium containing 2% charcoal-stripped FBS. The assay was performed in clear bottom black Greiner 1536-well plates. 9-cis-retinoic acid was used in the screen as the positive control. Library compounds were measured for their ability to stimulate the reporter gene activity. […] The fluorescence intensity (405 nm excitation, 460/530 nm emission) was measured using an EnVision plate reader. […] Detection; Fluorescence; Envision plate reader

[7] = molecular target: Thyroid hormone receptor beta (Homo sapiens) (UniProt P10828); assay: qHTS assay for small molecule antagonists of thyroid hormone receptor beta signaling (AID 588547; active = well fitted inhibition curve with a large enough effect in the signal ratio, with a control signal flat, not every such curve was filed as active; the % refers to the signal ratio); settings: TR-UAS-bla HEK293, beta-lactamase ratio, antagonist mode, 18 h; stronger effect = lower value
In short: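 Inhibition of T3-driven (0.4nM final) beta-lactamase reporter activity was measured over 0.59 nM to 92 uM compound after 18 h at 37 C. The cells were GripTite HEK293 TR-UAS-bla in charcoal/dextran-stripped serum, with CCF4 ratio read-out and IC50 from Hill fits.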

[8] = Cell Viability - LYMP2-023 (AID 975); settings: LYMP2-023 lymphoblastoid cell viability; at 92.2 µM (top of the series);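 also: cellular ATP measured by luciferase luminescence as viability proxy; cells exposed to compound for 24 hours at 37 °C; plate controls were DMSO only for no effect and 92 µM tetraoctylammonium bromide control for full effect; nearly all actives have a fitted effect of over 55% in size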
In short: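 Steps: seed 2500 human lymphoblastoid cells per well, incubate 5 hr at 37 C, add compound for 24 hr at 37 C, add CellTiter-Glo, hold 30 min at room temperature, read luminescence. AC50 derived by Hill modelling.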

[9] = molecular target: Peroxisome proliferator-activated receptor delta (Homo sapiens) (UniProt Q03181); assay: qHTS assay for small molecule agonists of peroxisome proliferator-activated receptor delta signaling (AID 588534; calls by dose curve;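 also: 0% = DMSO basal wells and 100% = positive control agonist at 10 µM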); settings: HEK293T PPARdelta-UAS-bla, beta-lactamase ratio, 18 h; at 76.7 µM (top of the series)
[10] = Validation screen for small molecules that induce DNA re-replication in SW480 colon adenocarcinoma cells (AID 504364); settings: DNA re-replication phenotype (high-content imaging); at 46.1 µM (top of the series); also: 0% is about no effect
In short: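 Image-based qHTS: compounds were incubated with SW480 cells for 48 hr, nuclei stained with Hoechst, and per-nucleus fluorescence intensity scanned to flag cells with excess DNA content.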

[11] = P-glycoprotein substrates identified in KB-8-5-11 adenocarcinoma cell line, qHTS therapeutic library screen (AID 1346987); settings: KB-8-5-11 (P-gp overexpressing) viability, CellTiter-Glo, 72 h; also: potency is read from the fitted curve at half-maximal effect; nearly all actives have a fitted effect of over 65% in size
In short: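 Luminescence from CellTiter-Glo, read 5 min after addition, quantified survival of KB-8-5-11 (P-gp-overexpressing) cells exposed to compounds for 72 h. AC50 was derived from concentration-response curves.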

[12] = qHTS of pediatric cancer cell lines to identify multiple opportunities for drug repurposing: Primary screen for BT-37 cells (AID 1347094); settings: BT-37 viability, CellTiter-Glo luminescence, 48 h; also: potency is read from the fitted curve at half-maximal effect
In short: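 500-1,000 cells/well; 5 h pre-incubation 37 °C/5% CO2; compound pinned; 48 h; CellTiter-Glo, 15 min RT; luminescence. MIPE 11-pt from 0.78 nM, NPC 8-pt from 0.59 nM final. Bortezomib 2.3 µM final as positive control.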

[13] = qHTS of pediatric cancer cell lines to identify multiple opportunities for drug repurposing: Primary screen for NB-EBc1 cells (AID 1347095); settings: NB-EBc1 neuroblastoma viability, CellTiter-Glo luminescence, 48 h; also: potency is read from the fitted curve at half-maximal effect
[14] = molecular target: Cytochrome P450 2C9 (Homo sapiens) (UniProt P11712); assay: Cytochrome P450 family 2 subfamily C member 9 (CYP2C9) small molecule antagonists: luciferase qHTS assay (AID 1645842; active = well fitted curve in the direction sought with a large enough effect in the repeat runs; an effect the other way counts as inactive or inconclusive; also: potency is read from the fitted curve at half-maximal effect; nearly all actives have a fitted effect of over 55% in size); settings: P450-Glo CYP2C9 enzyme assay, luciferin luminescence
In short: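 P450-Glo CYP2C9 system: proluciferin substrate with enzyme in mix containing 0.4% BSA, 10 min at room temperature, then NADPH regeneration solution added and incubated 1 h at 37C. Detection reagent stopped reaction; luminescence read after 20 min as RLU.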

[15] = molecular target: Peroxisome proliferator-activated receptor delta (Homo sapiens) (UniProt Q03181); assay: qHTS assay for small molecule antagonists of peroxisome proliferator-activated receptor delta signaling (AID 588535; active = well fitted inhibition curve with a large enough effect in the signal ratio, with a control signal flat, not every such curve was filed as active; the % refers to the signal ratio); settings: HEK293T PPARd-UAS-bla, beta-lactamase FRET ratio, 18 h; at 76.7 µM (top of the series)
[16] = molecular target: Voltage-gated inwardly rectifying potassium channel KCNH2 (Homo sapiens) (UniProt Q12809); assay: qHTS Assay for Small Molecule Inhibitors of the Human hERG Channel Activity (AID 588834); settings: U2OS BacMam hERG, FluxOR thallium flux fluorescence; at 46.1 µM (top of the series);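 also: U2OS cells transduced with hERG by BacMam; top concentration of the series differs between compounds; % is scaled to controls: 0 for no effect and ±100 for the full control effect; lower thallium flux fluorescence means stronger hERG block; nearly all actives have a fitted effect of over 50% in size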
[17] = S16 Schwann cell PMP22 intronic element firefly luciferase assay (AID 624032); settings: S16 rat Schwann cells, PMP22 element FLuc, 24 h; at 57.5 µM (top of the series);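 also: plate controls were DMSO for no effect and PTC124 positive control mean for full effect; nearly all actives have a fitted effect of over 30% in size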
[18] = qHTS assay for small molecule agonists of the antioxidant response element (ARE) signaling pathway measured by Nrf2-dependant transcriptional activity - cell viability counter screen (AID 720653; active = well fitted curve in the direction sought with a large enough effect in the repeat runs; an effect the other way counts as inactive or inconclusive; also: potency is read from the fitted curve at half-maximal effect); settings: ARE-bla HepG2 viability, CellTiter-Glo ATP luminescence, 16 h
In short: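 Cytotoxicity counter screen: intracellular ATP quantified by CellTiter-Glo luminescence in the same ARE-bla HepG2 plates, after 16 h compound exposure and a 2 h beta-lactamase substrate step.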

WaGa = assay: qHTS assay to identify novel small-molecules to repurpose for Merkel cell carcinoma treatment (AID 1296009); settings: MCC and control cell lines, CellTiter-Glo viability, 72 h; at 46 µM (top of the series); also: % is scaled to controls: 0 for no effect and ±100 for the full control effect; nearly all actives have a fitted effect of over 60% in size
In short: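 Cell viability, measured as CellTiter-Glo luminescence, was normalized between DMSO and no-cell wells. The cells had been exposed to 8- or 11-point compound dilutions for 72 hr at 37 degree celsius.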

CCOP(=O)(CC)OCC
viability change, negative = cytotoxic [1]: inactive: -2.78%

Cc1ccc([N+](=O)[O-])c([N+](=O)[O-])c1
activity change, negative = cytotoxicity [2]: inactive: -1.47%
max response [3]: inactive: -1.47%

NC(=O)Nc1ccc([As](=O)(O)O)cc1
caspase-3 activation [4]: inactive: -1.17%
viability change, negative = cytotoxic [5]: inactive: 1.41%
activation [6]: inactive: 8.65%
inhibition [7]: inactive: 1.41%

[NH4+].[O-][Cl+3]([O-])([O-])[O-]
activity change, negative = cytotoxicity [8]: inactive: 1.76%
activation [9]: inactive: 1.74%

CN(C(=O)Cc1ccc(Cl)c(Cl)c1)[C@@H]1CC[C@]2(CCCO2)C[C@H]1N1CCCC1
activity (re-replication induction) [10]: inactive: 15.9%

Cc1cc([N+](=O)[O-])cc([N+](=O)[O-])c1O
activation [9]: inactive: -14.9%
Potency [11]: active: 35.5 µM
Potency [12]: active: 35.5 µM
Potency [13]: active: 21.7 µM
Potency [14]: active: 32.6 µM

Cc1c([N+](=O)[O-])cccc1[N+](=O)[O-]
activity change, negative = inhibition [15]: inactive: 7.63%

O=[N+]([O-])[O-].[NH4+]
activity change, negative = inhibition [16]: inactive: -14.1%
activity change, negative = inhibition [17]: inactive: 18.2%

O=C1C2CC=CCC2C(=O)N1SC(Cl)(Cl)C(Cl)Cl (stereo not given)
Potency [18]: active: 14.1 µM

OCCSCCO
activity change, negative = cytotoxicity (WaGa): inactive: 11.9%
